{"source": "patent US6534629B1", "about": "“Nematode-extracted serine protease inhibitors and anticoagulant proteins” (priority 1994, dated 2003)", "molecules": {"B1": {"name": "AcaNAPc2: NAP of Ancylostoma caninum isolated by phage display, SEQ. ID. NO. 59; fVIIa/TF inhibitor (protein)", "chain": "KATMQCGENEKYDSCGSKECDKKCKYDGVEEEDDEEPNVPCLVRVCHQDCVCEEGFYRNKDDKCVSAEDCELDNMDFIYPGTRN"}}, "tested_on": "normal citrated human plasma", "assay": "Activated partial thromboplastin time (aPTT) assay", "type": "biochemical", "details": "concentration that doubled the control clotting time (28.5 seconds) of normal human plasma", "protocol": "The ex vivo anticoagulant effects of NAPs of the present invention in human plasma were evaluated by measuring the prolongation of the activated partial thromboplastin time (aPTT) and prothrombin time (PT) over a broad concentration range of each inhibitor.\nFresh frozen pooled normal citrated human plasma was obtained from George King Biomedical, Overland Park, Kans. Respective measurements of aPTT and PT were made using the Coag-A-Mate RA4 automated coagulometer (General Diagnostics, Organon Technica, Oklahoma City, Okla.) using the Automated aPTT Platelin® reagent (Organon Technica, Durham, N.C.) and Simplastin® Excel (Organon Technica, Durham, N.C.) respectively, as initiators of clotting according to the manufacturer's instructions.\nThe assays were conducted by making a series of dilutions of each tested NAP in rapidly thawed plasma followed by adding 200 microliters or 100 microliters of the above referenced reagents to the wells of the assay carousel for the aPTT or PT measurements, respectively. […]\nConcentrations of NAP were plotted against clotting time, and a doubling time concentration was calculated, i.e., a specified concentration of NAP that doubled the control clotting time of either the PT or the aPTT. […]", "data": [{"molecule": "B1", "values": [{"measurement": "Doubling Concentration (nM) in the aPTT", "value": "105 ± 11", "unit": "nM"}]}]}
